## Measured affinities in a library of Ab-14 heavy chain variants

From the AlphaSeq antibody data of Li et al. 2023 (doi:10.1038/s41467-023-39022-2), copy in the FLAb collection.

Target: peptide PDVDLGDISGINAS, taken from heptad repeat 2 (HR2) of SARS-CoV-2 spike.

Parent: Ab-14, a human scFv built as VH, the linker GGGGSGGGGSGGGGS, VL. Only the CDRs of the heavy chain vary.
VH: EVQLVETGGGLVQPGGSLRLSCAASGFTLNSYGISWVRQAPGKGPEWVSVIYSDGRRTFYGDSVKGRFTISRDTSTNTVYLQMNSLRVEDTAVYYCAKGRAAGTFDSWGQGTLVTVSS
VL: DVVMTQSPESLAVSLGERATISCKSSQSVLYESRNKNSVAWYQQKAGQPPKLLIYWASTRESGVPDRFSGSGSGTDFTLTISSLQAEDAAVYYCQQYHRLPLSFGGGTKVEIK

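Phage display of a naive human antibody library on the peptide gave the parent. These sequences belong to a second round, designed from the earlier measurements on random variants of the parent. Several design methods are mixed in this list. The scFvs were displayed on barcoded MATa yeast, the peptide on MATalpha yeast. Binding brings cells together so that they mate, and sequencing counts the barcode pairs among the diploids. Read counts were normalised to the haploid input and turned into Kd by a linear fit to BCL2-family pairs of known affinity, for each replicate. Each pool was mated in six replicate cultures.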

The whole VH of each variant is written out.
This list holds designs with at most six substitutions.
Values are apparent Kd, the geometric mean of the replicates that gave a signal; lower means stronger binding.
Where no diploid with the target was found in any replicate, the entry reads "nd": below detection, most likely a poor binder, though not proof of it.

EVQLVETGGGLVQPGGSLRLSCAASGFELNMYGISWVRQAPGKGPEWVSVIYSDGRRTFYGDQVKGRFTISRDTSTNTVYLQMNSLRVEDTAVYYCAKGEAAGTFDSWGQGTLVTVSS: 40 nM (6 of 6 replicates).
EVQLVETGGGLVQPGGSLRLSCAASGFELNCYGISWVRQAPGKGPEWVSVIYSDGKRTFYGDSVKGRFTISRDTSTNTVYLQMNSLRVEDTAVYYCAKGRTAGTFDSWGQGTLVTVSS: 56 nM (3 of 6 replicates).
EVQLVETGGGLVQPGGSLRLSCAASGFTLNSYGISWVRQAPGKGPEWVSVIYSDGRRTFYGDSVKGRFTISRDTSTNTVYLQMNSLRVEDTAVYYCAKGLEAGTFDTWGQGTLVTVSS: 9.3 nM (5 of 6 replicates).
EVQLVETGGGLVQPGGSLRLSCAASGFTLNSYGISWVRQAPGKGPEWVSVIYADGRRTFYSDSVKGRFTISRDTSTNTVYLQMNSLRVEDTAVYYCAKGRAPATFDSWGQGTLVTVSS: 84 nM (2 of 6 replicates).
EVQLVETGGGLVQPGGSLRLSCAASGFYLNSYGISWVRQAPGKGPEWVSVIYSDGRRTFYIDSVKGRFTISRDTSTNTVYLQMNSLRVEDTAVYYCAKGQTAGTFDSWGQGTLVTVSS: 58 nM (2 of 6 replicates).
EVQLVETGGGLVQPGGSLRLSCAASGFTLNEYGVSWVRQAPGKGPEWVSVIYADGRRTFYSDSVKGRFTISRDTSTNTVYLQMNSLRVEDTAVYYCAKGRQAGTFDLWGQGTLVTVSS: 2.4 nM (6 of 6 replicates).
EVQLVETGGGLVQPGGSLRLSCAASGFTLNDYGISWVRQAPGKGPEWVSVIYYDGRRTFYGDSVKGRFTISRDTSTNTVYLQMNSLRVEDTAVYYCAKGRAALTYISWGQGTLVTVSS: nd (0 of 6 replicates).
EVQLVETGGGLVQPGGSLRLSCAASGFDLNEYGISWVRQAPGKGPEWVSVIYADGRRTFYIDSVKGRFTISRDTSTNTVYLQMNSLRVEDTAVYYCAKGTAAGTFDIWGQGTLVTVSS: 19 pM (6 of 6 replicates).
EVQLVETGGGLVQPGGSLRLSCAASGFHLNSYGISWVRQAPGKGPEWVSVIYSDGRRTFYIDSVKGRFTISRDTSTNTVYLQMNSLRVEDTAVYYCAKGRIAGTFDSWGQGTLVTVSS: nd (0 of 6 replicates).
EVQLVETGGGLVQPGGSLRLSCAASGFNLNSYGISWVRQAPGKGPEWVSVIYSDGRRTFYIDSVKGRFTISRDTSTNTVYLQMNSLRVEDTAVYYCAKGQAAGTFDSWGQGTLVTVSS: 250 nM (6 of 6 replicates).
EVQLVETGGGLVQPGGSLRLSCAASGQSLNSYGISWVRQAPGKGPEWVSVIYSDGRRNFYGDSVKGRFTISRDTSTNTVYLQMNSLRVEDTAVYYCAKGRAAGTFDLWGQGTLVTVSS: nd (0 of 6 replicates).
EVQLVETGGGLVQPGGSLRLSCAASGFSLNNYGISWVRQAPGKGPEWVSVIYSDGRRTFYGDEVKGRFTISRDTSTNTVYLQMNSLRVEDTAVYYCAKGRTAGTFDSWGQGTLVTVSS: 1.7 nM (6 of 6 replicates).
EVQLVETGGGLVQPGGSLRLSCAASGFTLLSYGISWVRQAPGKGPEWVSVIYSDGRRTAYGDSVKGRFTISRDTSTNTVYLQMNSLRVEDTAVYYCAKGWTAGTFDSWGQGTLVTVSS: 30 nM (2 of 6 replicates).
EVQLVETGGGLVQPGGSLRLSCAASGFTLNSYGISWVRQAPGKGPEWVSVIYSDGRRTFSHDSVKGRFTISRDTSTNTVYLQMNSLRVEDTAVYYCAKWRAAGTFDSWGQGTLVTVSS: nd (0 of 6 replicates).
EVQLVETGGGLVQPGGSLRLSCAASGFSLNSYGISWVRQAPGKGPEWVSVIYSDGRRTFYGDAVKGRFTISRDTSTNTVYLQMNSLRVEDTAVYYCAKGRAAGTFDSWGQGTLVTVSS: 2.7 nM (6 of 6 replicates).
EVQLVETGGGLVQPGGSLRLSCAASGFSLNSYGISWVRQAPGKGPEWVSVIYSDGRRTFYGDSVKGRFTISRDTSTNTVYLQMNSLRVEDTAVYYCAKGRTAGTFDFWGQGTLVTVSS: 2.2 nM (6 of 6 replicates).
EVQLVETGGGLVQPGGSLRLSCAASGFCLNSYGISWVRQAPGKGPEWVSVIYSDGRRTFYGDSVKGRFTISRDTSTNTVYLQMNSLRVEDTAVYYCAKGRAAGTFDRWGQGTLVTVSS: nd (0 of 6 replicates).
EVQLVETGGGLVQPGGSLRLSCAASGFDLNEYGISWVRQAPGKGPEWVSVIYADGRRTFYTDSVKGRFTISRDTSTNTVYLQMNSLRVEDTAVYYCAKGEAAGTFDMWGQGTLVTVSS: 750 pM (6 of 6 replicates).
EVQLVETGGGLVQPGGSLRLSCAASGFTLNSYGISWVRQAPGKGPEWVSVIYSDGRRTFYEDSVKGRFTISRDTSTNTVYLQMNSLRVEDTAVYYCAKTRAAGTFDSWGQGTLVTVSS: nd (0 of 6 replicates).
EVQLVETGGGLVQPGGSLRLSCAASGFTLNEYGISWVRQAPGKGPEWVSVIYSDGRRTFYGDSVKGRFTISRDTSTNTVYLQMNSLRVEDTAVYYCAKGRHAGTFDSWGQGTLVTVSS: 2.7 nM (12 of 12 replicates).
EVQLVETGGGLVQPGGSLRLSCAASGFSLNSYGISWVRQAPGKGPEWVSVIYSDGRRTFYTDKVKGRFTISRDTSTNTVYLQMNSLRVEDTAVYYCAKGEAAGTFDSWGQGTLVTVSS: 8.7 nM (6 of 6 replicates).
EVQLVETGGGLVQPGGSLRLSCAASGFTLNSYGISWVRQAPGKGPEWVSVIYSDGRRTFYGDSVKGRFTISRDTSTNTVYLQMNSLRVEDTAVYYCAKGREKGTFDSWGQGTLVTVSS: nd (0 of 6 replicates).
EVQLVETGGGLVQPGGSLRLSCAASGFNLNSYGISWVRQAPGKGPEWVSVIYADGIRTFYGDSVKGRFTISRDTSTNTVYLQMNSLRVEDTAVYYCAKGRNAGTFDSWGQGTLVTVSS: 970 pM (6 of 6 replicates).

From the list, the first 3 with no signal in any replicate:

| VH | apparent Kd | seen in |
|---|---|---|
| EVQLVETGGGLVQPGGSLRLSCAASGFTLNDYGISWVRQAPGKGPEWVSVIYYDGRRTFYGDSVKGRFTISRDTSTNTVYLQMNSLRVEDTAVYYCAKGRAALTYISWGQGTLVTVSS | nd | 0/6 |
| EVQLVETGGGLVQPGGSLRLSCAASGFHLNSYGISWVRQAPGKGPEWVSVIYSDGRRTFYIDSVKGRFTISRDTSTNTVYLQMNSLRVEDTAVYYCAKGRIAGTFDSWGQGTLVTVSS | nd | 0/6 |
| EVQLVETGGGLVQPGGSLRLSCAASGQSLNSYGISWVRQAPGKGPEWVSVIYSDGRRNFYGDSVKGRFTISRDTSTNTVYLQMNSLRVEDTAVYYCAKGRAAGTFDLWGQGTLVTVSS | nd | 0/6 |

The authors averaged sequences with at least three values out of six and counted those with two or fewer as poor binders.
A sequence measured in both rounds can read differently, since the two assays cover different ranges.
Where one sequence has several entries in the source, the replicates are pooled.
Of ten entries with the parent sequence, four were seen in most replicates (averages 2.2 nM to 240 nM), three in one and three in none, so single entries are noisy.
Background: pairings of all heavy chain designs with three empty control strains gave a value in 1% of cases (median 120 nM, 5th percentile 7.0 nM). Values in that range, when seen in few replicates, are hard to tell from nonspecific mating.